Measurements reported in paper PMC3889641 (Inflammatory bowel diseases, 2013).
Read-outs that look alike come from different tables or passages of the source.

What was measured:
[1] = tested on: TGF-β1; format: in vivo, rat (Sprague-Dawley); details: 18 mg/kg/d i.p., 42 d
[2] = tested on: Collagen IαI; assay: Collagen IαI expression; format: in vivo, rat (Sprague-Dawley); details: EtOH/Cilengitide rats, 18 mg/kg/d i.p., 42 d; mean ± SE, 12 animals per group

In the case of cilengitide, the “ratio of active to total TGF-β1” value ([1]; EtOH/Cilengitide rats, EtOH/PBS control 0.15 ± 0.02) is reported as 0.10 ± 0.02, the “ratio of active to total TGF-β1” value ([1]; TNBS/cilengitide rats, TNBS/PBS control 0.32 ± 0.05) is reported as 0.09 ± 0.03 and the “collagen IαI expression, fold decrease compared to EtOH/PBS” value [2] is reported as 0.65 ± 0.02 fold.
